Data taken from patent US11925672B2, “Peptide having antioxidant activity and composition containing same” (SEMPIO FOODS COMPANY, priority 2018, dated 2024).
“Also recorded” adds a separate entry of the source.

Assays:
Nrf2 mRNA = Nrf2 mRNA expression level by real-time PCR in Tert-BHP-treated HEK293 cells; format: cell-based; conditions: Tert-BHP 300 μM, peptide 500 μM, 18 hours; for effect on expression of Nrf2 mRNA: FIGS. 5A to 5C; for Nrf2 mRNA expression compared to positive control GSH: vs GSH
Experimental: In the present invention, the antioxidant activity was compared between the 100 types of peptides, and the change in Nrf2 mRNA expression was measured through PCR in order to select the final peptide.
(§1) An HEK293 cell (kidney cell) line was seeded at a density of 6.6×10^5/well in DMEM (Dulbecco's Modified Eagle's Medium) medium on a 6-well plate and cultured at 37° C. under 5% CO2 for 24 hours. The next day, the medium was exchanged with serum and amino-acid-free media, and then the cells were further cultured for 20 hours or longer. The cells were treated with Tert-BHP (300 μM) and 500 μM 100 types of peptides, and then cultured for 18 hours.
RNA was extracted from the cells treated with 100 types of peptides in (1) using TRIzol (Thermo Fisher Scientific). A GoScript™ Reverse Transcription System (Promega, Wisconsin, USA) was used to synthesize cDNA from the RNA. The cDNA was synthesized by performing annealing using 1 μg of RNA, 0.5 μg of an oligo dt primer, 0.5 μg of a random primer and RT-PCR pre-mixture at 25° C. for 5 minutes, extension at 42° C. for 60 minutes, and inactivation at 70° C. for 15 minutes.
(§2) PCR was performed using Maxime™ PCR PreMix (i-StarTaq) (Intron Biotechnology, Korea). Real-time PCR was performed using SsoAdvanced™ Universal SYBR® Green Supermix (Bio-Rad, USA). 100 ng of cDNA, 2 μM (pmol/μl) primers, 10 μl of 2X SsoAdvanced™ Universal SYBR® Green Supermix and DW were added to the PCR plate well. Then, the temperature was cyclically adjusted to 95° C. for 3 minutes, 95° C. for 10 seconds and 58° C. for 40 seconds for a total of 40 cycles. A PCR reaction was performed using a CFX96 Touch™ Real-Time PCR Detection System (Bio-Rad, California, USA), and fluorescence intensity was measured at the end of each cycle.

SOD2 mRNA = SOD2 mRNA expression level by real-time PCR in Tert-BHP-treated HEK293 cells; format: cell-based; conditions: Tert-BHP 300 μM, peptide 500 μM, 18 hours; for effect on SOD2 mRNA expression: FIG. 6; for SOD2 mRNA expression compared to positive control GSH: vs GSH
Experimental: The expression of SOD2 mRNA as another antioxidant factor was determined. The cell line culture, RNA extraction, cDNA synthesis and PCR experiments were performed in the same manner as in Experimental Example 5 above. A detailed description thereof is given below.
as §1, with “and” for “under”
RNA was extracted from the cells treated with 100 types of peptides in (1) using TRIzol (Thermo Fisher Scientific). A GoScript™ Reverse Transcription System (Promega, Wisconsin, USA) was used to synthesize cDNA from the RNA. The cDNA was synthesized by performing annealing with 1 μg RNA, 0.5 μg of an oligo dt primer, 0.5 μg of a random primer, and RT-PCR pre-mixture at 25° C. for 5 minutes, extension at 42° C. for 60 minutes, and inactivation at 70° C. for 15 minutes.
as §2, with “using the” for “using a”

Substance	effect on expression of Nrf2 mRNA (Nrf2 mRNA)	Nrf2 mRNA expression compared to positive control GSH (Nrf2 mRNA)	effect on SOD2 mRNA expression (SOD2 mRNA)	SOD2 mRNA expression compared to positive control GSH (SOD2 mRNA)
γ-GLU-LEU (EL; gamma-glutamyl linkage; The peptide is a formed by condensation of the gamma-carboxy group of L-glutamic acid with the amino group of L-leucine.)	improve the expression of Nrf2 mRNA	comparable or superior	increased SOD2 mRNA expression	comparable or superior
γ-GLU-ALA (EA; gamma-glutamyl linkage; The peptide is formed by condensation of the gamma-carboxy group of L-glutamic acid with the amino group of L-alanine.)	improve the expression of Nrf2 mRNA	comparable or superior	increased SOD2 mRNA expression	comparable or superior
γ-GLU-GLU (EE; gamma-glutamyl linkage; The peptide is a formed by condensation of the gamma-carboxy group of L-glutamic acid with the amino group of L-glutamic acid.)	improve the expression of Nrf2 mRNA	comparable or superior		
γ-GLU-THR (ET; gamma-glutamyl linkage; The peptide is a formed by condensation of the gamma-carboxy group of L-glutamic acid with the amino group of L-threonine.)	improve the expression of Nrf2 mRNA	comparable or superior	increased SOD2 mRNA expression	comparable or superior
γ-GLU-MET (EM; gamma-glutamyl linkage; peptide identified from yeast hydrolysate)			increased SOD2 mRNA expression	comparable or superior
γ-GLU-TYR (EY; gamma-glutamyl linkage; The peptide is a formed by condensation of the gamma-carboxy group of L-glutamic acid with the amino group of L-tyrosine.)	improve the expression of Nrf2 mRNA	comparable or superior; also recorded: statistically significant activity	increased SOD2 mRNA expression	comparable or superior; also recorded: statistically significant activity
γ-GLU-PRO (EP; gamma-glutamyl linkage; The peptide is a formed by condensation of the gamma-carboxy group of L-glutamic acid with the amino group of L-proline.)	improve the expression of Nrf2 mRNA	comparable or superior	increased SOD2 mRNA expression	comparable or superior
γ-GLU-CYS(S-Me) (EC; gamma-glutamyl linkage; S-methyl cysteine; In the peptide, Cys is Cys(s-Me), which is characterized in that the hydrogen of the thiol group is substituted with a methyl group. The peptide is a formed by condensation of the gamma-carboxy group of L-glutamic acid with the amino group of; (2)..(2) cysteine in which hydrogen of the thiol group is substituted with a methyl group)	improve the expression of Nrf2 mRNA	comparable or superior; also recorded: statistically significant activity	increased SOD2 mRNA expression	comparable or superior; also recorded: statistically significant activity
γ-GLU-PHE (EF; gamma-glutamyl linkage; The peptide is a formed by condensation of the gamma-carboxy group of L-glutamic acid with the amino group of L-phenylalanine.)	improve the expression of Nrf2 mRNA	comparable or superior		
γ-GLU-ASN (EN; gamma-glutamyl linkage; The peptide is a formed by condensation of the gamma-carboxy group of L-glutamic acid with the amino group of L-asparagine.)	improve the expression of Nrf2 mRNA	comparable or superior	increased SOD2 mRNA expression	comparable or superior
γ-GLU-LYS (EK; gamma-glutamyl linkage; peptide identified from yeast hydrolysate)			increased SOD2 mRNA expression	comparable or superior
γ-GLU-ARG (ER; gamma-glutamyl linkage; The peptide is a formed by condensation of the gamma-carboxy group of L-glutamic acid with the amino group of L-arginine.)	improve the expression of Nrf2 mRNA	comparable or superior		
7-GLU-MET(O) (EM; gamma-glutamyl linkage; methionine sulfoxide; In the peptide, Met is methionune sulfoxide(Met(O)). The peptide is a formed by condensation of the gamma-carboxy group of L-glutamic acid with the amino group of Met(O).; (2)..(2) methionine sulfoxide) [γ-GLU-MET(O)]	improve the expression of Nrf2 mRNA		increased SOD2 mRNA expression	comparable or superior
γ-GLU-ASP (ED; gamma-glutamyl linkage; The peptide is a formed by condensation of the gamma-carboxy group of L-glutamic acid with the amino group of L-aspartic acid.)	improve the expression of Nrf2 mRNA	comparable or superior		
γ-GLU-VAL (EV; gamma-glutamyl linkage; The peptide is a formed by condensation of the gamma-carboxy group of L-glutamic acid with the amino group of L-valine.)	improve the expression of Nrf2 mRNA	comparable or superior		
α-GLU-HIS (EH; alpha-linked; peptide identified from yeast hydrolysate)	no effect			
